Consider 27 molecules from PubChem BioAssay AID2718 (Broad Institute, 2010).

Amino acid sequences for entries named in this document (tags omitted).
UniProt O15379, whole entry: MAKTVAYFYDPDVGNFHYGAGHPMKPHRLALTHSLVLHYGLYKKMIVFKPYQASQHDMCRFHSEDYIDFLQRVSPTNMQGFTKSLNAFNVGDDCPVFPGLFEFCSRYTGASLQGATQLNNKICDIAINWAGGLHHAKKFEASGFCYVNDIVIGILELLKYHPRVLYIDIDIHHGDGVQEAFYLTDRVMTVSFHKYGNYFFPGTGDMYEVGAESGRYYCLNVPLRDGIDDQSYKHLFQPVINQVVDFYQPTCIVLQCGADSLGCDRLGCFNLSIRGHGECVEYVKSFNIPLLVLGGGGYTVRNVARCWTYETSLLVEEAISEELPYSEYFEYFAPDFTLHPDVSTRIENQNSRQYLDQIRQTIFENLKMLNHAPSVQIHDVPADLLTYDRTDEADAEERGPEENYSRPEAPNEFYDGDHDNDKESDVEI

Only a part is listed here, and it is no random draw. Some salts and complexes are drawn in separate pieces, as the source files them; their charges need not balance. Active and inactive are the calls of the source. Cut-off read from the data, not from the text of the source: active = inhibition above about 26% (passing the limit was not always enough); inconclusive = no clear call, values can overlap the other calls.

For the assay, the target named is Histone deacetylase 3 (Homo sapiens) (UniProt O15379). The assay can be described thus: inhibition of human HDAC3 enzyme activity – biochemical, fluorescence, cell-free homogeneous, primary screen (AID 2718). As to conditions: recombinant HDAC3, fluorogenic peptide/trypsin coupled, at 8.3 µM, stronger effect = higher value.
Take `COc1ccc(OP(C)(=O)Nc2ccccn2)cc1` (configuration not stated): the inhibition (as a rule, the drop in the measured response relative to a control, in per cent) is inactive: -1.79%.
As for `CN(C)CCOC(=O)C(O)(c1ccccc1)C1CCCC1` (configuration not stated), the inhibition is inactive: 6.47%.
Take `COc1ccccc1OP(C)(=O)Nc1ccc(Br)cc1` (configuration not stated): the inhibition is inactive: -0.827%.
Regarding `CP(=O)(Nc1ccccn1)Oc1ccccc1` (configuration not stated), the inhibition is inactive: -3.97%.
Consider `CCc1ccc(OP(C)(=O)O)cc1`, for which the inhibition is inactive: 6.34%.
As for `Cc1c(NP(C)(=O)Oc2ccc(C(C)C)cc2)c(=O)n(-c2ccccc2)n1C` (configuration not stated), the figure is inactive: -0.294%; as for `O=[N+]([O-])c1cc([N+](=O)[O-])c(Nc2ccccn2)c([N+](=O)[O-])c1`, inactive: -5.19%; as for `CP(=O)(Nc1ccccc1F)Oc1ccccc1` (configuration not stated), inactive: -4.83%.
As for `CC(C)c1ccc(OP(C)(=O)Nc2ccc(SC(F)(F)F)cc2)cc1` (configuration not stated), the figure is active: 32.2%; as for `COc1ccc2c(c1O)-c1c(O)c(OC)cc3c1[C@H](C2)[N+](C)(C)CC3.O=[N+]([O-])c1cc([N+](=O)[O-])c([O-])c([N+](=O)[O-])c1[O-]`, inactive: -3.24%.
Regarding `O=C(OC1CN2CCC1CC2)c1ccc([N+](=O)[O-])cc1` (configuration not stated), the inhibition was inactive: 2.27%.
Regarding `O=C(OCCN1CCN(CCOCc2ccccc2)CC1)C(O)(c1ccccc1)c1ccccc1`, the inhibition was inactive: -6.09%.
`CCOC(=O)c1ccc(NP(C)(=O)Oc2ccc(F)cc2)cc1` (configuration not stated): the inhibition was inactive: 1.22%.
As for `COc1ccc(OP(C)(=O)Nc2ccc(SC(F)(F)F)cc2)cc1` (configuration not stated), the figure is inactive: 13%; as for `CP(=O)(Nc1ccccc1)Oc1ccc(F)cc1` (configuration not stated), inactive: 5.09%; as for `O=[N+]([O-])c1cc([N+](=O)[O-])c(OC2CCCCC2O)c([N+](=O)[O-])c1` (configuration not stated), inactive: 3.86%.
On to `CCCCCOc1ccc(NP(C)(=O)Oc2ccc(Cl)cc2Cl)cc1` (configuration not stated), for which the inhibition was inactive: 6.4%.
On to `CCN(CC)CCCOC(=O)C(O)(c1ccccc1)C1CCCCC1` (configuration not stated), for which the inhibition is inactive: -0.275%.
As for `CN(C)CCOC(=O)C(O)(c1ccccc1)C1CCCCC1` (configuration not stated), the figure is inactive: 3.24%.
For the molecule `COc1ccc(NP(C)(=O)Oc2ccccc2OC)cc1` (configuration not stated), the inhibition is inactive: 1.4%.
Consider `COc1ccc(OP(C)(=O)Nc2cccc(Br)c2)cc1` (configuration not stated), for which the inhibition is inactive: 9.02%.
Take `O=[N+]([O-])c1ccc(OP2(=O)COCCO2)cc1` (configuration not stated): the inhibition is inactive: -0.148%.
As for `O=[N+]([O-])c1cc([N+](=O)[O-])c(NCC2CCS(=O)(=O)C2)c([N+](=O)[O-])c1` (configuration not stated), the inhibition is inactive: 2.7%.
In the case of `CCOP(C)(=S)SCC(=O)NC(C)(CC)C(=O)O` (configuration not stated), the inhibition is inactive: -3.68%.
As for `CP(=O)(Nc1ccc(SC(F)(F)F)cc1)Oc1ccc(F)cc1` (configuration not stated), the figure is inactive: 11.1%; as for `Cc1ccccc1NP(C)(=O)Nc1ccccc1C`, inactive: -8.85%; as for `CP(=O)(Nc1ccc2c(c1)OCCO2)Oc1ccccc1` (configuration not stated), inactive: 0.499%.
